Laboratory results as given in ChEMBL document CHEMBL1130160 (J Med Chem, 1997).

Protein sequences, listed by entry. Tags and fused reporters are not part of them. Lines headed by an entry give the natural chain unless they say otherwise; changes in a name come on top.
UniProt Q92731: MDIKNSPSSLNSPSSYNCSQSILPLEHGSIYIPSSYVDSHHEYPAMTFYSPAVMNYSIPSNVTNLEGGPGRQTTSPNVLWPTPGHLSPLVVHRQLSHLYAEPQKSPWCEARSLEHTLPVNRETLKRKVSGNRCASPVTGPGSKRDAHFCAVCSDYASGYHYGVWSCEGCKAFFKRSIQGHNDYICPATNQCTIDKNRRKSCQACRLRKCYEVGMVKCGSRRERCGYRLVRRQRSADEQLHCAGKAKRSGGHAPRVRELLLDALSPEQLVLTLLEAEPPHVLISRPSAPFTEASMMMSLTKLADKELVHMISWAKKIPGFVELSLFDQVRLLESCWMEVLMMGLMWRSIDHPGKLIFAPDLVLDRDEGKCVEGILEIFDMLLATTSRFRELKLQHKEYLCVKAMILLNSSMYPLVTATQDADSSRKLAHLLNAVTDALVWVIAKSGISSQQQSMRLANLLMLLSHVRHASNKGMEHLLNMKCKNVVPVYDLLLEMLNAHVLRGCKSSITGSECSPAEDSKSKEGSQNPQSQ
UniProt P03372: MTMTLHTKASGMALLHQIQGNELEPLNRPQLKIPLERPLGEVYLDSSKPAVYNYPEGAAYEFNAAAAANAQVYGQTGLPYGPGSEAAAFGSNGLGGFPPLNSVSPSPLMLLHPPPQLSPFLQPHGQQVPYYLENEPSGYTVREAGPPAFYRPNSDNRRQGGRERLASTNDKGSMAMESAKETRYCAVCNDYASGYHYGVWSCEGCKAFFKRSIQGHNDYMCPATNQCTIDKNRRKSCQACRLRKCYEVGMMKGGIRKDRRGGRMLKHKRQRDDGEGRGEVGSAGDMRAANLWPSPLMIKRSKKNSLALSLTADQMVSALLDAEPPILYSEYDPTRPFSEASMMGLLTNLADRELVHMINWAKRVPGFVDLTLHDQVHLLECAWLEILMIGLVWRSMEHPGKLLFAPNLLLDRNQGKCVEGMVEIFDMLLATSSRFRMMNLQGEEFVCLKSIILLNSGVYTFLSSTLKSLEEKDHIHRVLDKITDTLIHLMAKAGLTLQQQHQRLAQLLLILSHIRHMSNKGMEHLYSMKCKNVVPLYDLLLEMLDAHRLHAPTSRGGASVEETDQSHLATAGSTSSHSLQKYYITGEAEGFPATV

Molecular target: Estrogen receptor (Homo sapiens, UniProt Q92731+P03372)
Conditions: mcf7

IC50 [nM] | SMILES
35 | Cc1sc2cc(O)ccc2c1C(=O)c1ccc(OCCN2CCCCC2)cc1
2.5 | O=C(c1ccc(OCCN2CCCCC2)cc1)c1c(C2CCCCC2)sc2cc(O)ccc12
